Source: US20240343821A1, “OFATUMUMAB FOR TREATING PEDIATRIC MS” (NOVARTIS AG, priority 2021, published 2024)

Legend:
[1] = cited from earlier work
[2] = PARADIGMS study: fingolimod compared to interferon beta-1a (Avonex) in pediatric MS; format: in vivo, human; conditions: conservative estimate from upper limit of the confidence interval of the ARR ratio
Text: In the completed PARADIGMS study, fingolimod was compared to interferon (IFN) beta-1a (Avonex). Participants treated with IFN beta-1a experienced 120 MS relapses in 163 participant-years of exposure, while fingolimod treated participants experienced 25 MS relapses in 180 participant-years of exposure. The annualized relapse rate (ARR) (i.e. the number of MS relapses per year) was 0.122 in the fingolimod group and 0.675 in IFN beta-1a group.
In the PARADIGMS study the ARRratio (fingolimod/interferon) was 0.18 (95% CI: 0.11; 0.30) (Chitnis et al 2018). Taking the upper limit of the confidence interval as a conservative estimate, would result in ARR being 3.3-times higher on interferon versus fingolimod.

B1: interferon (IFN) beta-1a (protein, UniProt P01574 22-187, looked up)
Interferon beta: MSYNLLGFLQRSSNFQCQKLLWQLNGRLEYCLKDRMNFDIPEEIKQLQQFQKEDAALTIYEMLQNIFAIFRQDSSSTGWNETIVENLLANVYHQINHLKTVLEEKLEKEDFTRGKLMSSLHLKRYYGRILHYLKAKEYSHCAWTIVRVEILRNFYFINRLTGYLRN
modifications: glycosylated, CHO-expressed (Avonex)
notes: interferon beta-1a (Avonex), comparator in the … study
In the case of B1, the “annualized relapse rate (ARR) (i.e. the number of MS relapses per year)” value ([1]; PARADIGMS study, pediatric MS participants) is given as 0.675, the “number of MS relapses experienced” value ([1]; PARADIGMS, 163 participant-years of exposure (IFN beta-1a), 180 participant-years (fingolimod)) is given as 120 and the “ARR on interferon versus fingolimod (fold higher)” value [2] is given as 3.3 times.
